Source: patent publication US5710169A, “Therapeutic heterocycles” (Zeneca Limited, priority 1994, dated 1998)

Amino acid sequences for entries named in this document (tags omitted).
UniProt P21452, whole entry: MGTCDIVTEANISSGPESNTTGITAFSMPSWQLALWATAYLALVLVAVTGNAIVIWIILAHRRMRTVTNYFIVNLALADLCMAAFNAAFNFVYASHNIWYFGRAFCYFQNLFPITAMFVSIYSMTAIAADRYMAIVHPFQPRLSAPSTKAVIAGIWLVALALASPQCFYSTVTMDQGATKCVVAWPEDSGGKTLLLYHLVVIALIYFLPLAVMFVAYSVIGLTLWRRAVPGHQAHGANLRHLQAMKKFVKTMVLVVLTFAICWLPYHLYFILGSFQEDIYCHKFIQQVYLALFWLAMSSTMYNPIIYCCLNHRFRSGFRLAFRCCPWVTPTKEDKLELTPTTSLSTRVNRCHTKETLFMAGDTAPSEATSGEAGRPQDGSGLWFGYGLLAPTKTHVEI

Molecular target: human NK2 receptor (Homo sapiens, UniProt P21452)
Test: Neurokinin A (NKA) Receptor Binding Assay (Test B), human NK2 receptor expressed in MEL cells
Conditions: read-out: IC50 versus ^3 H-NKA binding to MELM, standard compound, initial use of assay
Excerpt: Neurokinin A (NKA) Receptor Binding Assay (Test B)
The selectivity of a Compound for binding at the NK1 and the NK2 receptors may be shown by determining its binding at other receptors using standard assays, for example, one using a tritiated derivative of NKB in a tissue preparation selective for NK3 receptors.

Q: For CSCC[C@@H]1NC(=O)[C@H](CC(C)C)NC(=O)CNC(=O)[C@H](Cc2ccccc2)NC(=O)[C@H](Cc2c[nH]c3ccccc23)NC(=O)[C@H](CCC(N)=O)NC1=O, which IC50 is on record?
A: 30 nM
